## Antibody variant affinities, Ab-95 light chain, assay 2

Binding partner: SARS-CoV-2 spike HR2 peptide, sequence PDVDLGDISGINAS.

Each scFv is VH, a 15-residue (Gly4Ser)3 linker, VL, as in the parent Ab-95, and differs from it in the CDRs of the light chain only.
VH: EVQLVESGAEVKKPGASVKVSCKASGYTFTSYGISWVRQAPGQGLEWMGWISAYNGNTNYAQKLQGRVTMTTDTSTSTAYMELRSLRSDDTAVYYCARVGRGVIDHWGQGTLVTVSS
VL: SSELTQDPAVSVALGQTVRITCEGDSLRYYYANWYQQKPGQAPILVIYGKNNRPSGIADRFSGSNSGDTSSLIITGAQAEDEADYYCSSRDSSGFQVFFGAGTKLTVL

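Phage display of a naive human antibody library on the peptide gave the parent. In library AAYL52, one, two or three CDR residues were substituted; doubles and triples were drawn at random. Affinity was read by AlphaSeq, a pooled yeast mating assay with surface-displayed partners. After mating in shaken culture at 30 °C for 16 h, diploids were selected and their barcode pairs sequenced. The ratio of observed to expected reads was calibrated, replicate by replicate, on BCL2-family standards whose Kd was known from biolayer interferometry. There are three technical replicates.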

Positions count from residue 1 of the parent VL; N33L puts L in place of N. The Kd shown is the geometric mean over detected replicates; a lower Kd is a better binder. A pair that was not seen in any replicate is written "not detected"; this usually means weak binding, but a binder can also be missed. As a blank, each scFv also met three strains without target: over library AAYL52, 28% of these pairings were detected, typically at 8.2 µM and seldom below 800 nM. For each scFv, signals with the empty controls are counted beside the result. Parent in this assay: reference entry 200 nM, copy in this library 180 nM.

changes,Kd,replicates with signal,control signals
N33L+G94H+Q96D,120 µM,2 of 3,4 of 9
Y29R+N51S+S92D,820 nM,2 of 3,0 of 9
R90F+Q96I+V97G,52 µM,1 of 3,1 of 9
N51T+S93R+Q96W,37 µM,1 of 3,1 of 9
Y30A+N33E+K50G,2.4 µM,3 of 3,0 of 9
N51D+S55P,590 nM,3 of 3,3 of 9
L27G+Y29S+S89W,2.0 µM,3 of 3,1 of 9
E23T+G49F+G94K,16 µM,1 of 3,4 of 9
K50H+R53T+D91N,350 nM,3 of 3,6 of 9
R28F+G94Q+F95N,6.3 µM,2 of 3,0 of 9
S26H+R53G+S89D,5.2 µM,1 of 3,2 of 9
N33E+N52W+Q96L,7.6 µM,2 of 3,5 of 9
G94N+F98G,not detected,0 of 3,1 of 9
S26A+R53W+D91K,81 µM,3 of 3,4 of 9
K50V+R53T+Q96L,2.1 µM,1 of 3,5 of 9
A32Y+N52T+R90L,860 nM,1 of 3,2 of 9
Y29W+A32C+G49K,21 µM,2 of 3,3 of 9
Y31H+A32V+K50H,420 nM,3 of 3,3 of 9
N33I+K50R+S93A,not detected,0 of 3,0 of 9
D25K+N51D+S88W,not detected,0 of 3,1 of 9
L27W+Y30L+Y31D,430 nM,3 of 3,4 of 9
S26G+P54R+S93G,5.1 µM,3 of 3,1 of 9
Y31I+N52H+F98K,not detected,0 of 3,0 of 9
G49S+K50V+G94I,20 µM,1 of 3,1 of 9
S26T+N51F+S93E,14 µM,1 of 3,3 of 9
E23Y+S26T+D91C,not detected,0 of 3,0 of 9
E23M+S55D+V97T,190 nM,3 of 3,1 of 9
R28G+S55M+D91P,16 µM,2 of 3,4 of 9
L27S+N51F+V97Q,110 µM,1 of 3,1 of 9
Y29N+Y30I+D91M,140 nM,3 of 3,4 of 9
R28L+K50A+S88G,1.5 µM,3 of 3,5 of 9
E23L+N33C+S89N,58 µM,2 of 3,3 of 9
Y31E+R53H+S92F,1.6 µM,3 of 3,2 of 9
N52Q+R90M+S93F,510 nM,3 of 3,2 of 9
R53W+F95G+F98L,not detected,0 of 3,5 of 9
K50F+N51T+N52K,11 µM,2 of 3,4 of 9
N51L+S92R+V97D,20 µM,2 of 3,2 of 9
N33E+S55M+F98G,110 µM,1 of 3,3 of 9
S26G+R28E+V97M,6.5 µM,1 of 3,0 of 9
S26M+Y29M+G94P,2.7 µM,2 of 3,5 of 9
E23H+N52K+Q96N,690 nM,3 of 3,2 of 9
K50I+R90L+V97H,11 µM,3 of 3,2 of 9
A32S+N52L+S89V,190 nM,3 of 3,3 of 9
E23W+G24E+Y29A,13 µM,1 of 3,4 of 9
Y30S+P54L+D91V,170 nM,3 of 3,1 of 9
N52V+R53I+R90Y,6.9 µM,1 of 3,4 of 9
Y30M+N51T+S92M,540 nM,3 of 3,4 of 9
E23M+S55Q+V97S,2.2 µM,3 of 3,4 of 9
K50D+P54W+R90N,24 µM,3 of 3,3 of 9
G49P+R53N+F95A,2.1 µM,1 of 3,1 of 9
R28W+A32Q+R90A,19 µM,1 of 3,2 of 9
E23D+N51I+R90P,14 µM,2 of 3,4 of 9
D25H+N51L+N52E,2.5 µM,2 of 3,2 of 9
N52I+S88P+G94A,220 nM,3 of 3,7 of 9

The 3 strongest on average among those seen in every replicate, once more:

changes,Kd,replicates with signal,control signals
Y29N+Y30I+D91M,140 nM,3 of 3,4 of 9
Y30S+P54L+D91V,170 nM,3 of 3,1 of 9
E23M+S55D+V97T,190 nM,3 of 3,1 of 9

Values reported by Engelhart et al. 2022, doi:10.1038/s41597-022-01779-4 (FLAb copy).